In PubChem BioAssay AID1259311 (ICCB-Longwood Screening Facility, Harvard Medical School, 2017) one finds inhibition data, which are given here for 23 molecules.

As a reminder, the inhibition is the change of the read-out against control, counted positive when it falls.

The structures appear in SMILES notation. This is a selection; strong and weak results do not stand in their true shares. Some tests of the compounds listed are not included; inactive here does not mean inactive elsewhere. Active and inactive are the calls of the source. Rule as the data show it: active = inhibition above about 85%; inactive = the rest.

The experiment is described as follows: growth inhibition of S. aureus RN4220, primary screen, OD600 (AID 1259311).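 Also: plate controls were untreated cells for no effect and reference antibiotic for full effect.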 Particulars: OD600, 16 h, active compounds read high.
Consider `O=C(NCC1(N2CCCCC2)CCCCC1)c1cccc(Cl)c1`, for which the inhibition is inactive: -1.69%.

For `COc1cccc(C(=O)NCC2(N3CCCCC3)CCCCC2)c1`, the inhibition was inactive: 5.55%.

As for `COc1ccc(Cl)cc1C(=O)NCC1(N(C)C)CCCCC1`, the inhibition is inactive: -0.53%.

Turning to `COc1cc(C(=O)NCC2(N(C)C)CCCCC2)c([N+](=O)[O-])cc1OC`, the inhibition was inactive: 0.764%.

Take `CN(C)C1(CNC(=O)c2ccc(Br)cc2)CCCCC1`: the inhibition is inactive: -1.82%.

Turning to `CN(C)c1cccc(C(=O)NCC2(N(C)C)CCCCC2)c1`, the inhibition is inactive: 3.78%.

As for `CC(C)Oc1ccc(C(=O)NCC2(N(C)C)CCCCC2)cc1`, the inhibition is inactive: 3.17%.

On to `O=C(OCCN1CCCC1)C(O)(c1ccccc1)c1ccccc1`, for which the inhibition is inactive: 2.53%.

Take `COc1ccc(Br)c(C(=O)NCC2(N3CCCCC3)CCCCC2)c1`: the inhibition was inactive: 1.71%.

Take `O=C(OC1CN2CCC1CC2)C(CO)(c1ccccc1)c1ccccc1` (stereo not drawn): the inhibition is inactive: 9.51%.

For `Cc1ccc(C(=O)NCC2(N3CCCCC3)CCCCC2)cc1`, the inhibition is inactive: 3.82%.

With `COc1cc(SC)ccc1C(=O)NCC1(N(C)C)CCCCC1`, the inhibition was inactive: 0.262%.

For `CN1[C@@H]2CC[C@H]1CC(OC(=O)C(O)(c1ccccc1)c1ccccc1)C2` (stereo partly drawn), the inhibition is inactive: 2.02%.

Take `O=C(NCC1(N2CCCCC2)CCCCC1)c1cc([N+](=O)[O-])ccc1Cl`: the inhibition was inactive: 2.6%.

On to `CCN1CCCC(OC(=O)C2(O)c3ccccc3C=Cc3ccccc32)C1` (stereo not drawn), for which the inhibition is inactive: 2.33%.

Consider `Cc1cc(C(=O)NCC2(N3CCCCC3)CCCCC2)ccc1[N+](=O)[O-]`, for which the inhibition was inactive: 2.03%.

On to `O=C(NCC1(N2CCCCC2)CCCCC1)c1cccc(Br)c1`, for which the inhibition is inactive: 2.65%.

`COc1ccc(C(=O)NCC2(N(C)C)CCCCC2)cc1`: the inhibition was inactive: 4.67%.

For the molecule `CN(C)CCOC(=O)C(O)(c1ccccc1)C1CCCCC1` (stereo not drawn), the inhibition is inactive: 5%.

Turning to `O=C(NCC1(N2CCCCC2)CCCCC1)c1cc(F)c(F)cc1Cl`, the inhibition is inactive: 6.79%.

Consider `Cc1ccccc1C(=O)NCC1(N2CCCCC2)CCCCC1`, for which the inhibition is inactive: 4.22%.

Consider `CN(C)c1ccc(C(=O)NCC2(N(C)C)CCCCC2)cc1`, for which the inhibition was inactive: 0.363%.

`CN(C)C1CCCC1OC(=O)C(O)(c1ccccc1)c1ccccc1` (stereo not drawn): the inhibition was inactive: 2.15%.
